# In PubChem BioAssay AID588627 (Johns Hopkins Ion Channel Center, 2011):
# Chains of the proteins cited; added tags and fusions are not shown.
# UniProt Q96LB2, whole entry: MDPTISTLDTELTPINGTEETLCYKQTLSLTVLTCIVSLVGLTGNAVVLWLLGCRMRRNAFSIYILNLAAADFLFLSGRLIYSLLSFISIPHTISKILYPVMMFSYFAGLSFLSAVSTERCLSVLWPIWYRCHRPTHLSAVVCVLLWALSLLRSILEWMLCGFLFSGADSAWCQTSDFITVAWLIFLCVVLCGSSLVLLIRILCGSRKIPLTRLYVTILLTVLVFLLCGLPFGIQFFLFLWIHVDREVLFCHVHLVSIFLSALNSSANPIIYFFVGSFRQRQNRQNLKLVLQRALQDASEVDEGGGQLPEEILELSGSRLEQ
# The entries are a selection whose mix differs from that of the whole data set. Active and inactive are the calls of the source.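 The calls were made as follows: active = calcium response B-score plate-corrected fluorescence ratio at least 3 library SD, with starting fluorescence B-score inside 5 SD; inactive = the rest.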
# Target: Mas-related G-protein coupled receptor member X1 (Homo sapiens) (UniProt Q96LB2)
# Assay: MrgX1 activation via calcium signaling – HEK293 cells, Fluo-4 calcium flux, primary screen (AID 588627);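 as to B-score: B-score of the peak-minus-trough calcium fluorescence change over baseline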
# Details: Fluo-4 calcium fluorescence, agonist mode, at 10 µM; hits give high values
# Procedure, shortened: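 System – MrgX1-expressing HEK293 cells · Incubation – cells plated overnight, dye loaded 0.5 h 37 °C, 0.5 h room temperature · Technique – kinetic Fluo-4 NW fluorescence of intracellular calcium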
SMILES,outcome,B-score
CN(C(=O)Cc1ccccc1)[C@@H]1CC[C@]2(CCCO2)C[C@H]1N1CCCC1,inactive,
N#CCCN(C(=O)COC(=O)C(O)(c1ccccc1)c1ccccc1)c1ccc(F)cc1,inactive,
COc1cc(C2NCCC3(OCCO3)C2(C)C)cc(OC)c1OC.O=[N+]([O-])c1cc([N+](=O)[O-])c(O)c([N+](=O)[O-])c1 (stereo unspecified),inactive,
CC1CCC(C(C)C)C(OP(=O)(Nc2ccccn2)c2ccccc2)C1 (stereo unspecified),inactive,
Cc1ccc(C(=O)OC2CN3CCC2CC3)cc1 (stereo unspecified),inactive,
Cc1nn(-c2ccccc2)c2c1P(=O)(N1CCOCC1)N(C)C(c1ccccc1)=N2 (stereo unspecified),inactive,
O=C(/C=C/c1ccccc1)OC1CN2CCC1CC2 (stereo unspecified),inactive,
CCOC(=O)C(CC)C1=NC(C)(C)Cc2ccccc21.O=[N+]([O-])c1cc([N+](=O)[O-])c(O)c([N+](=O)[O-])c1 (stereo unspecified),inactive,
O=[N+]([O-])c1cc([N+](=O)[O-])c(Nc2nnnn2CCO)c([N+](=O)[O-])c1,inactive,
CN(C)C1(CNC(=O)c2ccc(S(C)(=O)=O)cc2)CCCCC1,inactive,
CC1=C2N=C(C=C3N=C(C(C)=C4[N-][C@@](C)([C@@H]5N=C1[C@](C)(CCC(=O)NC[C@@H](C)OP(=O)([O-])O[C@H]1[C@@H](O)[C@@H](n6cnc7cc(C)c(C)cc76)O[C@@H]1CO)[C@H]5CC(N)=O)[C@@](C)(CC(N)=O)[C@@H]4CCC(N)=O)[C@@](C)(CC(N)=O)[C@@H]3CCC(N)=O)C(C)(C)[C@@H]2CCC(N)=O.[C-]#N.[Co+3],inactive,
O=P1(Nc2ncccn2)COc2ccccc2OC1,inactive,
COc1ccccc1OP(C)(=O)Nc1c(C)cccc1C (stereo unspecified),inactive,
CN1CCCCC1COC(=O)C1(O)c2ccccc2CCc2ccccc21 (stereo unspecified),inactive,
O=P1(Nc2ccc(Br)cn2)COc2ccccc2OC1,inactive,
Cc1ccc(OCC(=O)OC2CN3CCC2CC3)cc1 (stereo unspecified),inactive,
O=[As](O)(c1cccs1)c1cccs1,inactive,
Nc1cccc([As](=O)(O)c2ccccc2)c1,inactive,
CP(=O)(Nc1ccc(SC(F)(F)F)cc1)Oc1ccccc1 (stereo unspecified),inactive,
CCCOc1ccc(NP(C)(=O)Oc2ccc(Cl)cc2)cc1 (stereo unspecified),inactive,
CN(CCCl)Cc1cc(Cl)c(NC2=NCCN2)c(Cl)c1,inactive,
CCOP(=O)(Nc1ccc(C)cn1)OCC,inactive,

SMILES,outcome,B-score
CCOP(=O)(NC(=NC(C)c1ccccc1)NC(C)c1ccccc1)OCC (stereo unspecified),inactive,
O=[N+]([O-])c1cc([N+](=O)[O-])c(-n2nnc3ccccc32)c([N+](=O)[O-])c1,inactive,
O=P1(Nc2ccccn2)COc2ccccc2OC1,inactive,
CCC1=CC2Cc3nc4ccc(Cl)cc4c(N)c3C(C1)C2 (stereo unspecified),inactive,
CC(C)(C)C(=O)NC(Sc1ncccn1)C(Cl)(Cl)Cl (stereo unspecified),inactive,
Clc1n[nH]nc1-c1nn[nH][15n]1,inactive,
COc1ccccc1CNC(=O)COC(=O)C(O)(c1ccccc1)c1ccccc1,inactive,
O=[N+]([O-])c1cc([N+](=O)[O-])c(-c2cnn(-c3ccccc3)c2)c([N+](=O)[O-])c1,inactive,
CC1(CBr)Cn2c(nc3ccccc3c2=O)S1 (stereo unspecified),inactive,
Cc1nc2ccc3ccccc3c2s1.O=[N+]([O-])c1cc([N+](=O)[O-])c(O)c([N+](=O)[O-])c1,inactive,
O=[As](O)(c1ccccc1Br)c1ccccc1Br,inactive,
CC(C)/C=N\N=C(\N)N[N+](=O)[O-],inactive,
CN(C(=O)Cc1ccc(Cl)c(Cl)c1)[C@@H]1CCCC[C@H]1N1CCCC1,inactive,
CP(=O)(Oc1ccccc1)OC(c1ccccc1)C(F)(F)F (stereo unspecified),inactive,
Cc1cccc(C)c1OP(C)(=O)Nc1ccc(SC(F)(F)F)cc1 (stereo unspecified),inactive,
CP(=O)(Nc1ccc(SC(F)(F)F)cc1)Oc1ccc(Cl)cc1 (stereo unspecified),inactive,
COP1(=S)c2c(C)nn(CCC#N)c2N=C(c2ccc(F)cc2)N1C (stereo unspecified),inactive,
Cc1cc(C)cc(OP(C)(=O)Nc2ccc(SC(F)(F)F)cc2)c1 (stereo unspecified),inactive,
O=C(Nc1ccncc1[N+](=O)[O-])c1ccc([N+](=O)[O-])cc1[N+](=O)[O-],inactive,
CCc1ccc(OP(C)(=O)N2CCN(c3ccc([N+](=O)[O-])cc3)CC2)cc1 (stereo unspecified),inactive,
O=C(COc1ccccc1)OC1CN2CCC1CC2 (stereo unspecified),inactive,
CP(=O)(NC(=O)Nc1ccccc1)Oc1ccccc1 (stereo unspecified),inactive,

SMILES,outcome,B-score
CCOC(=O)c1ccc(NP(C)(=O)Oc2ccc(OC)cc2)cc1 (stereo unspecified),inactive,
CCOC(=O)c1ccc(NC(=O)C(C)(CCl)SC)cc1 (stereo unspecified),inactive,
O=[N+]([O-])c1cc([N+](=O)[O-])c(O)c([N+](=O)[O-])c1.c1ccc(Oc2ccncc2)cc1,inactive,
CCOP(C)(=S)SCC(=O)NC(C)C(=O)O (stereo unspecified),inactive,
O=C(OC1CN2CCC1CC2)c1cccc([N+](=O)[O-])c1 (stereo unspecified),inactive,
CP(=O)(Nc1ccccn1)Oc1ccc(Cl)cc1 (stereo unspecified),inactive,
CCC(C)N(CC(C)C)C(=S)SC(NC(C)=O)C(Cl)(Cl)Cl (stereo unspecified),inactive,
CCOC(=O)Nc1ccc([As](=O)(O)O)c(O)c1,inactive,
Cc1cc(SC(NC(=O)c2ccccc2)C(Cl)(Cl)Cl)nc(C(C)C)n1 (stereo unspecified),inactive,
CCOC(=O)Nc1cccc([As](=O)(O)O)c1,inactive,
CP(=S)(Nn1cnnc1)Oc1ccccc1 (stereo unspecified),inactive,
O=[N+]([O-])c1ccc(Nc2ccc(Oc3ccc([N+](=O)[O-])cc3[N+](=O)[O-])cc2)c([N+](=O)[O-])c1,inactive,
CP(=O)(Nc1ccccc1Br)Oc1ccccc1 (stereo unspecified),inactive,
COc1ccccc1OP(C)(=O)Nc1ccccc1 (stereo unspecified),inactive,
O=P(Nc1ccccn1)(c1cccc2ccccc12)c1cccc2ccccc12,inactive,
Cc1cc(SC(NC=O)C(Cl)(Cl)Cl)ncn1 (stereo unspecified),inactive,
O=[As](O)(c1ccc(O)cc1)c1ccccc1O,inactive,
C[As](=O)(O)c1cccc(C(=O)O)c1,inactive,
O=[N+]([O-])c1cc([N+](=O)[O-])c(Nc2cccnc2)c([N+](=O)[O-])c1,inactive,
Cc1ccc2nc3c(c(C)c2c1)CC(C(Cl)Cl)S3 (stereo unspecified),inactive,
O=[N+]([O-])c1ccc2c(c1)C=Nc1ccccc1O2,,active: 34.6
Cc1cccc(C)c1OP(C)(N)=O (stereo unspecified),inactive,
